Experimental data published in ChEMBL document CHEMBL1127431, “Cholinergic agents structurally related to furtrethonium. 2. Synthesis and antimuscarinic activity of a series of N-[5-[(1'-substituted-acetoxy) methyl]-2-furfuryl]dialkylamines” (J Med Chem, 1994).

The chains behind the UniProt entries cited, without tags or fusion partners.
UniProt P08483, whole entry: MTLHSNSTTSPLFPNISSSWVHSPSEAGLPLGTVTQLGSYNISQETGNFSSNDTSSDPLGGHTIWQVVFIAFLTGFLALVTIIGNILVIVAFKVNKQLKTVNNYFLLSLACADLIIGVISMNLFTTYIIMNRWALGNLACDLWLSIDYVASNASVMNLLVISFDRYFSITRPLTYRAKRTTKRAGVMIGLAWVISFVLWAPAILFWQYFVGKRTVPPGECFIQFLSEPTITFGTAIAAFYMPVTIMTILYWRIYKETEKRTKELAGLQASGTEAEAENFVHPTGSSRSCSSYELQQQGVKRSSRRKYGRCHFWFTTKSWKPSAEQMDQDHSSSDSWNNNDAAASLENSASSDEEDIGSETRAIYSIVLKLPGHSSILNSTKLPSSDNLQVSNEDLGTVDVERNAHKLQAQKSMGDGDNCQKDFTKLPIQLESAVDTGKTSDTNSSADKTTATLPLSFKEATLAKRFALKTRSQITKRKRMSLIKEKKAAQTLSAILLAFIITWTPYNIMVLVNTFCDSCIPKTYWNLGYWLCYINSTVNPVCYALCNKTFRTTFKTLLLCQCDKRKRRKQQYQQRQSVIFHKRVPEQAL
UniProt P08172, whole entry: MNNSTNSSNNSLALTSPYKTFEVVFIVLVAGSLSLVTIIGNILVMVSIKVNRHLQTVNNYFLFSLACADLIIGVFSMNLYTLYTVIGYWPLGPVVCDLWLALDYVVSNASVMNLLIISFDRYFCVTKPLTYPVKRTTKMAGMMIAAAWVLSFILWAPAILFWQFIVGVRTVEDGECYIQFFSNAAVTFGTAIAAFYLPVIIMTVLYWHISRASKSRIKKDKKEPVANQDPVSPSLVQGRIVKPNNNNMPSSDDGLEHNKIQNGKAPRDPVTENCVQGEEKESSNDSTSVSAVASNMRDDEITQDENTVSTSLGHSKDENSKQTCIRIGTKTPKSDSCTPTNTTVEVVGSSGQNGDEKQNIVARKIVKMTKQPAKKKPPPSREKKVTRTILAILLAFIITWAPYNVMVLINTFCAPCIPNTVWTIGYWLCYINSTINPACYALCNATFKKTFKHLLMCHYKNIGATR

Columns and labels:
[1] = molecular target: Muscarinic acetylcholine receptor M3 (Rattus norvegicus) (UniProt P08483); assay: In vitro antimuscarinic activity against the M3 muscarinic receptor subtype in rat bladder
In short: (§1)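 Rat urinary detrusor strips (extratrigonal, 1 cm × 2 mm), fasted overnight, isotonic recording at 1 g resting tension; 30–45 min equilibration. Cumulative furtrethonium curves in 0.5 log-unit increments, repeated until two matched, then final curve after ≥30 min with test compound. E50 by four-parameter logistic fit; pKb = log(DR−1) − log[B], mean ± SE.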

[2] = molecular target: Muscarinic acetylcholine receptor M2 (Homo sapiens) (UniProt P08172); assay: In vitro antimuscarinic activity against the M2 muscarinic receptor subtype in guinea pig atria; conditions: Cavia porcellus; target entry is the homologue from another species
In short: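 Guinea pig atria (both), fasted overnight, resting tension 1 g, force recorded; 30–45 min equilibration. Cumulative carbachol curves in 0.25 log-unit increments, repeated until two matched, then final curve after ≥30 min with test compound. E50 from four-parameter logistic fit; pKb = log(DR−1) − log[B], mean ± SE.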

[3] = molecular target: Muscarinic acetylcholine receptor M3 (Rattus norvegicus) (UniProt P08483); assay: In vitro antimuscarinic activity against the M3 muscarinic receptor subtype in rat ileum; assay type: tissue-based
In short: as §1, with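 “Rat longitudinal ileum segments (~2 cm),” for “Rat urinary detrusor strips (extratrigonal, 1 cm × 2 mm),”, “at 0.5” for “at 1”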

Row | Compound | pKb [1] | pKb [2] | pKb [3]
1 | CN(Cc1ccc(COC(=O)C(O)(c2ccccc2)C2CCCCC2)o1)C1CCCCC1 (stereo not given) | 7 | 6 | 7.7
2 | CN(C)Cc1ccc(COC(=O)C(O)(c2ccccc2)C2CCCC2)o1 (stereo not given) | 7.8 | 7.7 | 7.8
3 | C=CCN(C)Cc1ccc(COC(=O)C(O)(c2ccccc2)C2CCCCC2)o1 (stereo not given) | 7.8 | 6.8 | 7.5
4 | CC(C)N(C)Cc1ccc(COC(=O)C(O)(c2ccccc2)C2CCCC2)o1 (stereo not given) | 7.7 | 7.2 | 7.4
5 | CN(C)Cc1ccc(COC(=O)C(O)(c2ccccc2)c2ccccc2)o1 | 6.7 | 6.7 | 6.5
6 | O=C(OCc1ccc(CN2CCC(O)CC2)o1)C(O)(c1ccccc1)C1CCCCC1 (stereo not given) | 6.8 | 6.3 | 7
7 | CC(C)N(C)Cc1ccc(COC(=O)C(O)(c2ccccc2)C2CCCCC2)o1 (stereo not given) | 7.5 | 6.4 | 7.5
8 | CN(C)Cc1ccc(COC(=O)C(O)(c2ccccc2)C2CCCCC2)o1 (stereo not given) | 8.2 | 7.2 | 8.1
9 | CC1CNCCN1Cc1ccc(COC(=O)C(O)(c2ccccc2)C2CCCCC2)o1 (stereo not given) | 5 | < 5 | 5.8
10 | O=C(OCc1ccc(CN2CCNCC2)o1)C(O)(c1ccccc1)C1CCCCC1 (stereo not given) | 5.5 | 5 | 5.5
